# Ab-91 heavy chain CDR variants: yeast mating affinities

Binding partner: SARS-CoV-2 spike HR2 peptide, sequence PDVDLGDISGINAS.

Each scFv is VL, the linker GGGGSGGGGSGGGGS, VH, as in the parent Ab-91, and differs from it in the CDRs of the heavy chain only.
VL: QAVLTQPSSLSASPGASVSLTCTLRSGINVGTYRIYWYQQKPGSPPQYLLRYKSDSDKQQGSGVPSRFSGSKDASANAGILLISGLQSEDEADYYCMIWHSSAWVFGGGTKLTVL
VH: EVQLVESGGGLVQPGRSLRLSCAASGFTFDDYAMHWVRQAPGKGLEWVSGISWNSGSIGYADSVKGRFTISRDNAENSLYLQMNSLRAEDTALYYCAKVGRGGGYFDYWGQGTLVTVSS

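The parent was found by panning a naive human phage display library on the peptide. AAYL51 was designed without a model: most single CDR substitutions and a random sample of double and triple ones. Affinity was read by AlphaSeq, a pooled yeast mating assay with surface-displayed partners. After mating in shaken culture at 30 °C for 16 h, diploids were selected and their barcode pairs sequenced. A regression on co-assayed BCL2-family reference pairs converts the normalised counts of each replicate to an apparent Kd. Mating was done three times.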

Each variant's VH is given in full.
Affinities are written as log10 Kd with Kd in nM; a lower number is a better binder.
"n.d." means that the variant was in the library but no mating with the target was seen in that replicate; the authors take this as a sign of poor binding, and no number exists.

VH	replicates, log10 nM	signal with controls
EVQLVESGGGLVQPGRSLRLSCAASGFTFDDYAMHWVRQAPGKGLEWVSGISWNSGSIGYADSVKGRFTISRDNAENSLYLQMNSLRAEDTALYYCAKVGRGGCYFDDWGQGTLVTVSS	n.d. n.d. 4.11	0 of 9
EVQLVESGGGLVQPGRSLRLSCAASGYTFDDYAMHWVRQAPGKGLEWVSGISWNSGSWGYADSVKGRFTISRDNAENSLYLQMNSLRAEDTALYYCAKVGRGGGYEDYWGQGTLVTVSS	4.80 n.d. n.d.	1 of 9 (5.18)
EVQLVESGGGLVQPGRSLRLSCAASGFTFDDYAMHWVRQAPGKGLEWVSGISWNSGHIGYADSVKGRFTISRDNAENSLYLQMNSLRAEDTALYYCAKVGRGGGGFDYWGQGTLVTVSS	3.84 4.20 4.14	6 of 9 (4.38)
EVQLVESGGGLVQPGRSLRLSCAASGFTFDDYAMHWVRQAPGKGLEWVSGISWNSGGIYYADSVKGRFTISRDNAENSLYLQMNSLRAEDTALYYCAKVGRGGEYFDYWGQGTLVTVSS	n.d. n.d. n.d.	0 of 9
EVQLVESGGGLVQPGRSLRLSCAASGMTFDDYEMHWVRQAPGKGLEWVSGSSWNSGSIGYADSVKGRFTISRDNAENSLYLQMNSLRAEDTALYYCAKVGRGGGYFDYWGQGTLVTVSS	n.d. 6.18 5.13	3 of 9 (4.09)
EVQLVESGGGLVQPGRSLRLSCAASGFTFDDYAMHWVRQAPGKGLEWVSGISWNSASIGYADSVKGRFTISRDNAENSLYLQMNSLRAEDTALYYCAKHGRGGGYFDYWGQGTLVTVSS	n.d. n.d. n.d.	0 of 9
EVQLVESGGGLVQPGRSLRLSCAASGCTFDDYAMHWVRQAPGKGLEWVSGISWNSGSIGYADSVKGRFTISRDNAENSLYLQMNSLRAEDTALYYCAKYGRYGGYFDYWGQGTLVTVSS	n.d. n.d. n.d.	0 of 9
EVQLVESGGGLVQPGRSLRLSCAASGFTFDQYAMHWVRQAPGKGLEWVSGISWNSGSIFYADSVKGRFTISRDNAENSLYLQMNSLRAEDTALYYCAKVGRGGTYFDYWGQGTLVTVSS	n.d. n.d. n.d.	0 of 9
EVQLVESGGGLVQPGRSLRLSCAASPFTFDDYAMQWVRQAPGKGLEWVSGISWNSGSIFYADSVKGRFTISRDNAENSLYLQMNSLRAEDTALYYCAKVGRGGGYFDYWGQGTLVTVSS	5.77 5.00 5.30	4 of 9 (4.52)
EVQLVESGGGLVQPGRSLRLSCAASGFWFDDYAMHWVRQAPGKGLEWVSGISWNSGSIGYADWVGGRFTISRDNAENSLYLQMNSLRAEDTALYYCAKVGRGGGYFDYWGQGTLVTVSS	2.20 1.90 1.94	5 of 9 (4.55)
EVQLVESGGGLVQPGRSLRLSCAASGFTFDGYAMHWVRQAPGKGLEWVSGISWNSESIGYADSVKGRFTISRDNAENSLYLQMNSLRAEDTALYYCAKVGRGGGYFMYWGQGTLVTVSS	0.38 0.29 -0.34	0 of 9
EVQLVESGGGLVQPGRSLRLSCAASIFTFDDYAMHWVRQAPGKGLEWVSGISGNSGSIGYADSVKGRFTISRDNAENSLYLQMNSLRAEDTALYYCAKAGRGGGYFDYWGQGTLVTVSS	n.d. n.d. n.d.	0 of 9
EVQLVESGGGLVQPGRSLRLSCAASGRTFDDYAMQWVRQAPGKGLEWVSGISWNSGSIGYADSVKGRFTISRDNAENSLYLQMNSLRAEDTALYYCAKHGRGGGYFDYWGQGTLVTVSS	n.d. n.d. n.d.	1 of 9 (3.87)
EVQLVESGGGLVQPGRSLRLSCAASGFMFDDYAMHWVRQAPGKGLEWVSNISWNSGSIGYADSVKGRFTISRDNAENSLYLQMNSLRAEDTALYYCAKVGRGFGYFDYWGQGTLVTVSS	4.78 3.52 n.d.	1 of 9 (4.51)
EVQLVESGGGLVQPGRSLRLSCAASGFTFDDYAMHWVRQAPGKGLEWVSGIQWNSGSIGYADSAKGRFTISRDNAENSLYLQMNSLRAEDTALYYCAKVGRGGGYFLYWGQGTLVTVSS	n.d. n.d. n.d.	0 of 9
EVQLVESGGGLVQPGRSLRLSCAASGFTFYDYAMHWVRQAPGKGLEWVSGIQWNSGSIGSADSVKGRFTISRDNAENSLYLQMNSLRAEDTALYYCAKVGRGGGYFDYWGQGTLVTVSS	4.46 n.d. n.d.	1 of 9 (5.38)
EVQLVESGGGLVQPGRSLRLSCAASGFTFDDYAMHWVRQAPGKGLEWVSGISWNSGSSGYADSVKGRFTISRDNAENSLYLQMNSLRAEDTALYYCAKVGRRGPYFDYWGQGTLVTVSS	1.16 1.13 0.65	2 of 9 (5.66)
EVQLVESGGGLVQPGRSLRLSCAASGFTFDDYAMHWVRQAPGKGLEWVSGISWNSGSIGYADSMKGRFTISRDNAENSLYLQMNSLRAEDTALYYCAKVGRWGGYFDYWGQGTLVTVSS	4.76 n.d. 4.78	3 of 9 (4.82)
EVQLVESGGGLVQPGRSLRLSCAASGFTFDDYAMHWVRQAPGKGLEWVSGISWNSGSIGYADSVKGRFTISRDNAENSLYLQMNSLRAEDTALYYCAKVGRGGRTFFYWGQGTLVTVSS	4.92 n.d. n.d.	3 of 9 (4.31)
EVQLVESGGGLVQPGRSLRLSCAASGFTGDDYAMHWVRQAPGKGLEWVSGISPNSGNIGYADSVKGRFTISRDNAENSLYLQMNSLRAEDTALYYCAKVGRGGGYFDYWGQGTLVTVSS	4.05 n.d. n.d.	2 of 9 (4.45)
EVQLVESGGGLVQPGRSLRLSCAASGMTFDDYAMHWVRQAPGKGLEWVSGISWNSGSIWYADSVKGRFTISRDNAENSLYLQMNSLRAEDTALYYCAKVGRGGGYFDYWGQGTLVTVSS	n.d. n.d. n.d.	0 of 9
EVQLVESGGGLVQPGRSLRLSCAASGFTFDDYAMHWVRQAPGKGLEWVSGISHNSGYIGYADSVKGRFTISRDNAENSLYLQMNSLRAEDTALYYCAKVMRGGGYFDYWGQGTLVTVSS	n.d. 5.78 n.d.	4 of 9 (4.84)
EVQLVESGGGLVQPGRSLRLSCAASGFTFDDYAMHWVRQAPGKGLEWVSGISWNTGSSGYADSMKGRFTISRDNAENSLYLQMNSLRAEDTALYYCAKVGRGGGYFDYWGQGTLVTVSS	n.d. n.d. n.d.	0 of 9
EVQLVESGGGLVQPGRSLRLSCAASGFTFDDYAMHWVRQAPGKGLEWVSGISWNSHSIYGADSVKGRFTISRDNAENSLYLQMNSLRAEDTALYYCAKVGRGGGYFDYWGQGTLVTVSS	3.88 n.d. n.d.	0 of 9

Nonspecific signal, from three strains lacking the peptide, appeared in 21% of pairings of library AAYL51, centred on 4.54 (5% of these signals below 3.26); values are not corrected for it. Also given: how often the same scFv was detected with the empty control strains, with their mean in brackets.
In this assay the parent's reference entry averaged 1.86; its copy inside this library read 0.88.

Data: MIT Lincoln Laboratory AlphaSeq set, Engelhart et al. 2022, doi:10.1038/s41597-022-01779-4, as distributed in FLAb.